This passage reports Kd results from paper PMC4415972.

The test has as its target synaptic membrane proteins in SMPL Nanodiscs (immobilised on magnetic beads). The experiment in a line: ELISA; magnetic bead-based: SMPL Nanodiscs immobilised through the His tag of MSP on Dynabeads; PBS with 0.1% BSA and 25 mM imidazole; AβOs 1 h at 37°C; bound AβOs detected by NU2 antibody or through biotin (Vectastain) with colorimetric HRP substrate; nonspecific binding measured with excess ATA; Kd as Aβ monomer equivalent.

The term Kd denotes the constant that tells how readily two partners part at equilibrium. Regarding “Aβ oligomers (AβOs) prepared from Aβ1–42 (from UniProt P05067 672-713) (peptide)”, the Kd worked out at 92 nM.
